According to patent publication EP4656640A1, “IRAK4 DEGRADER AND USE THEREOF” (Shanghai Qilu Pharmaceutical Research and Development …, priority 2023, dated 2024):
Like-named read-outs stand apart in the source and are kept apart here. Blank lines part the entries; values can stand above or below the compound they belong to.

By UniProt entry, the sequences of proteins in these tests, tags left out.
UniProt Q9NWZ3, whole entry: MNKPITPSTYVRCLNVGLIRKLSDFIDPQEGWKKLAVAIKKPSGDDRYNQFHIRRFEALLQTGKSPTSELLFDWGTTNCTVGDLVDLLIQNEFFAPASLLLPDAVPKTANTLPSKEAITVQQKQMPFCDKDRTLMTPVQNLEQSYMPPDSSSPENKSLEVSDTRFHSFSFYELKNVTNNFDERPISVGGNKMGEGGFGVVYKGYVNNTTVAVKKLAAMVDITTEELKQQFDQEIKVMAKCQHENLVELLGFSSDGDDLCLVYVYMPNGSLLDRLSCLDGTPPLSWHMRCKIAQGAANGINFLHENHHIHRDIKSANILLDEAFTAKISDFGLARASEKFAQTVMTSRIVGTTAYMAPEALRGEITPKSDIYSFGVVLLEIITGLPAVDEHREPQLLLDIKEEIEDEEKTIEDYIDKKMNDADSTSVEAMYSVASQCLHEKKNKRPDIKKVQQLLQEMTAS

Columns and labels:
IRAK4 [1] = molecular target: T1, IRAK4 (Homo sapiens, UniProt Q9NWZ3); format: cell-based; design: endogenous in cells; host or cells: OCI-LY3; conditions: read-out: OCI-LY3 DC50; OCI-LY3 cells
IRAK4 [2] = molecular target: T1, IRAK4; assay: Degradation of IRAK4 in SU-DHL-2 cells (flow cytometry); format: cell-based; design: The degradation level of IRAK4 protein in SU-DHL-2 cell line by the compounds was detected by flow cytometry; endogenous in cells; host or cells: SU-DHL-2; OCI-LY3
IRAK4 [3] = molecular target: T1, IRAK4; assay: Degradation of IRAK4 in monocytes of human PBMCs (flow cytometry); format: cell-based; design: endogenous in cells; conditions: read-out: DC50 in PBMC, 24 hours incubation
[4] = Example 22 at 50 mpk
[5] = read-out: SU-DHL-2 DC50, 24 hours incubation

Structure (SMILES): Cn1c(=O)n(C2CCC(=O)NC2=O)c2cccc(C#CCCOC(=O)N3CCC4(CC3)CC(n3cc(NC(=O)c5cnn6ccc(N7C[C@H]8C[C@@H]7CO8)nc56)c(C(F)F)n3)C4)c21 (stereo partly shown) [Example 16]
DC50 (IRAK4 [1]): 5 nM
DC50 (IRAK4 [2]; [5]): 5 nM

Structure (SMILES): Cn1c(=O)n(C2CCC(=O)NC2=O)c2cccc(C#CCO[C@H]3C[C@H](C(=O)N4CCC5(CC4)CC(n4cc(NC(=O)c6cnn7ccc(N8C[C@H]9C[C@@H]8CO9)nc67)c(C(F)F)n4)C5)C3)c21 (stereo partly shown) [Example 36]
DC50 (IRAK4 [3]): 0.8 nM
DC50 (IRAK4 [2]; [5]): 5.6 nM

DC50 (IRAK4 [2]; 24 hours incubation, read-out: SU-DHL-2 DC50): 6 nM
Structure (SMILES): Cn1c(=O)n(C2CCC(=O)NC2=O)c2cccc(C#CCCCC(=O)N3CCC4(CC3)CC(n3cc(NC(=O)c5cnn6ccc(N7C[C@H]8C[C@@H]7CO8)nc56)c(C(F)F)n3)C4)c21 (stereo partly shown) [Example 25]

Structure (SMILES): Cn1c(=O)n(C2CCC(=O)NC2=O)c2cccc(C#CCC3CCN(C(=O)N4CCC5(CC4)CC(n4cc(NC(=O)c6cnn7ccc(N8C[C@H]9C[C@@H]8CO9)nc67)c(C(F)F)n4)C5)CC3)c21 (stereo partly shown) [Example 27]
DC50 (IRAK4 [1]): 32 nM
DC50 (IRAK4 [2]; [5]): 22 nM

Structure (SMILES): Cn1c(=O)n(C2CCC(=O)NC2=O)c2cccc(C#CCO[C@H]3CCN(C(=O)N4CCC5(CC4)CC(n4cc(NC(=O)c6cnn7ccc(N8C[C@H]9C[C@@H]8CO9)nc67)c(C(F)F)n4)C5)C3)c21 (stereo partly shown) [Example 19]
DC50 (IRAK4 [1]): 6 nM
DC50 (IRAK4 [2]; [5]): 7 nM

Structure (SMILES): Cn1c(=O)n(C2CCC(=O)NC2=O)c2cccc(C#CCOC3CN(C(=O)N4CCC5(CC4)CC(n4cc(NC(=O)c6cnn7ccc(N8C[C@H]9C[C@@H]8CO9)nc67)c(C(F)F)n4)C5)C3)c21 (stereo partly shown) [Example 14]
DC50 (IRAK4 [1]): 4.4 nM
DC50 (IRAK4 [2]; [5]): 4.6 nM

Structure (SMILES): Cn1c(=O)n(C2CCC(=O)NC2=O)c2cccc(C#CCO[C@@H]3CCN(C(=O)N4CCC5(CC4)CC(n4cc(NC(=O)c6cnn7ccc(N8C[C@H]9C[C@@H]8CO9)nc67)c(C(F)F)n4)C5)C3)c21 (stereo partly shown) [Example 18]
DC50 (IRAK4 [2]; [5]): 6 nM

Structure (SMILES): Cn1c(=O)n(C2CCC(=O)NC2=O)c2cccc(C#CCOC3CCN(C(=O)N4CCC5(CC4)CC(n4cc(NC(=O)c6cnn7ccc(N8C[C@H]9C[C@@H]8CO9)nc67)c(C(F)F)n4)C5)CC3)c21 (stereo partly shown) [Example 13]
DC50 (IRAK4 [1]): 5 nM
DC50 (IRAK4 [3]): 2.22 nM
DC50 (IRAK4 [2]; [5]): 5.7 nM

Structure (SMILES): CC(OCC#Cc1cccc2c1n(C)c(=O)n2C1CCC(=O)NC1=O)C(=O)N1CCC2(CC1)CC(n1cc(NC(=O)c3cnn4ccc(N5C[C@H]6C[C@@H]5CO6)nc34)c(C(F)F)n1)C2 (stereo partly shown) [Example 11]
DC50 (IRAK4 [2]; [5]): 3 nM

Structure (SMILES): Cn1c(=O)n(C2CCC(=O)NC2=O)c2cccc(C#CCOC(=O)N3CC(N4CCC5(CC4)CC(n4cc(NC(=O)c6cnn7ccc(N8C[C@H]9C[C@@H]8CO9)nc67)c(C(F)F)n4)C5)C3)c21 (stereo partly shown) [Example 21]
DC50 (IRAK4 [2]; [5]): 3 nM

Structure (SMILES): Cn1c(=O)n(C2CCC(=O)NC2=O)c2cccc(C#CCC3CN(C(=O)N4CCC5(CC4)CC(n4cc(NC(=O)c6cnn7ccc(N8C[C@H]9C[C@@H]8CO9)nc67)c(C(F)F)n4)C5)C3)c21 (stereo partly shown) [Example 26]
DC50 (IRAK4 [1]): 3.5 nM
DC50 (IRAK4 [2]; [5]): 2.9 nM

Structure (SMILES): Cn1c(=O)n(C2CCC(=O)NC2=O)c2cccc(C#CCCN3CCC4(CC3)CC(n3cc(NC(=O)c5cnn6ccc(N7C[C@H]8C[C@@H]7CO8)nc56)c(C(F)F)n3)C4)c21 (stereo partly shown) [Example 22]
concentration levels in plasma and spleen compared with KT-474 at 150 mpk [4]: same concentration levels

Structure (SMILES): Cn1c(=O)n(C2CCC(=O)NC2=O)c2cccc(C#CCO[C@H]3C[C@@H](C(=O)N4CCC5(CC4)CC(n4cc(NC(=O)c6cnn7ccc(N8C[C@H]9C[C@@H]8CO9)nc67)c(C(F)F)n4)C5)C3)c21 (stereo partly shown) [Example 20]
DC50 (IRAK4 [1]): 4 nM
DC50 (IRAK4 [2]; [5]): 4 nM
